According to ChEMBL document CHEMBL1129205, “Small peptide inhibitors of 47 mediated MAdCAM-1 adhesion to lymphocytes” (Bioorg Med Chem Lett, 1996):

System: not listed separately
Assay: Inhibition of MAdCAM-1/alpha-4 beta7-mediated cell adhesion to T-cell lymphoma, HUT78 cells at 500 uM
Assay type: functional
Settings: not given

**Q.** Which inhibition at 500 µM does the source give for `CC(=O)N[C@@H](CC(C)C)C(=O)N[C@@H](CC(=O)O)C(=O)N[C@H](C(=O)N[C@@H](CO)C(=O)N[C@@H](CC(C)C)C(N)=O)[C@@H](C)O` here?
**A.** 71%

**Q.** With `CC(=O)N[C@@H](CC(C)C)C(=O)N[C@@H](CC(=O)O)C(=O)N[C@H](C(=O)N[C@H](C(=O)N[C@@H](CC(C)C)C(N)=O)[C@@H](C)O)[C@@H](C)O` as the molecule, how does the inhibition at 500 µM read?
**A.** 100%

**Q.** For `CC(=O)N[C@@H](CC(C)C)C(=O)N[C@@H](CC(=O)O)C(=O)N[C@@H](CO)C(=O)N[C@@H](CO)C(=O)N[C@@H](CC(C)C)C(N)=O`, which inhibition at 500 µM is on record?
**A.** 38%

**Q.** Which inhibition at 500 µM does the source give for `CC(=O)N[C@@H](CC(C)C)C(=O)N[C@@H](CC(=O)O)C(=O)N[C@H](C(=O)N[C@@H](CO)C(=O)N[C@@H](CC(C)C)C(N)=O)C(C)C` here?
**A.** 85%

**Q.** With `CC(=O)N[C@@H](CC(C)C)C(=O)N[C@@H](CC(=O)O)C(=O)N[C@H](C(=O)N[C@@H](CO)C(=O)N[C@@H](Cc1ccccc1)C(N)=O)[C@@H](C)O` as the molecule, how does the inhibition at 500 µM read?
**A.** 86%

System: HuT78
Assay: Compound was tested for inhibition of MAdCAM-1/alpha-4 beta-7 mediated cell adhesion to T-cell lymphoma, HUT78 cells
Assay type: functional, cell-based
Settings: Homo sapiens

**Q.** Which IC50 does the source give for `CC(=O)N[C@@H](CC(C)C)C(=O)N[C@@H](CC(=O)O)C(=O)N[C@H](C(=O)N[C@@H](CO)C(=O)N[C@@H](CC(C)C)C(N)=O)[C@@H](C)O` here?
**A.** 250 µM
